Values of other authors as cited in patent US6596701B1, “S-adenosyl methionine regulation of metabolic pathways and its use in diagnosis and therapy” (MediQuest Therapeutics, Inc., priority 1995, dated 2003).

System: natural killer cell function
Conditions: Crohn's disease patients; cited from earlier work

## O=C(O)CCCC[C@@H]1SC[C@@H]2NC(=O)N[C@@H]21 [biotin]
  natural killer cell function: increases their natural killer cell function
